Source: PubChem BioAssay (Broad Institute)
PGC1a acetyl inh – PGC1a acetylation modulation, inhibitor mode | U2OS PGC1a acetylation, AlphaScreen anti-acetyl-lysine; with virally co-expressed GCN5 acetyltransferase | inhibition, % at 15.6 µM | 350,000 compounds, 0.17% hits | AID 651687;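 active means every replicate shows inhibition of at least 40%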;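 further: 0% = neutral control wells and 100% = positive control wells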
miR-122 sensor – inhibitors of miR-122 in Huh7 cells. Huh7 miR-122 Renilla luciferase sensor, 48 h; neutral wells = 0, positive control = 100. activation (reporter increase), % at 12.5 µM. 340,000 compounds, 0.3% hits;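 active means mean replicate activation score at least 90 and every replicate individually at or above 90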;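 further: higher luciferase means less miR-122 activity so hits act as miR-122 inhibitors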
MITF TRPM1 inh – inhibitors of MITF-driven TRPM1 promoter in melanoma cells | SK-MEL-5 TRPM1 promoter luciferase, 24 h | inhibition, % at 12.5 µM | 330,000 compounds, 0.83% hits | AID 488899;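 active means mean inhibition across replicates of 60% or more, whatever share of single replicates reaches that level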
MITF TRPM1 HTS – increases MITF-driven TRPM1 promoter luciferase signal; SK-MEL-5 TRPM1-promoter luciferase, 24 h; % of positive control, neutral wells = 0; activation, % at 12.5 µM; 300,000 compounds, 0.75% hits;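 active means mean activation of at least 80% with every replicate also reaching 80%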;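 further: 0% = neutral control wells and 100% = parthenolide positive control wells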
Yeast UUG start – alters start codon recognition fidelity in yeast; S. cerevisiae UUG-firefly luciferase reporter, luminescence/redox ratio; activity score, % at 18.7 µM; hit rate 0.13% among 350,000;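 active = replicate mean at a twofold rise or more, about +100% in these data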;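 also: firefly luciferase made from a UUG start codon reports start codon fidelity; reporter light over untreated wells divided by growth signal over untreated wells; some hits fall short of that in this replicate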
Wnt bcat act – Wnt/beta-catenin pathway activation; AID 743398; Wnt/beta-catenin reporter cell assay, activator, plate reader; 300,000 compounds, 1.2% hits; activation, % at 9.35 µM; in the data active means activation above about 30%, passing the limit was not always enough;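 further: 0% = neutral control wells and 100% = positive control wells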
Numbers without * were called inactive; · = no result given; [ ] = remark or other dose. Sampled rows, rich in hits. Any-hit rate of the full collection: about 2.1%.

SMILES | PGC1a acetyl inh | miR-122 sensor | MITF TRPM1 inh | MITF TRPM1 HTS | Yeast UUG start | Wnt bcat act
C[C@@H]1CN([C@H](C)CO)C(=O)c2cc(N(C)C)ccc2O[C@@H](C)CCCCO[C@H]1CN(C)S(=O)(=O)c1ccccc1 | -9 | 6[16.7 µM] | · | · | 18 | ·
O=C(C[C@H]1CC[C@H](NC(=O)NC2CCCC2)[C@@H](CO)O1)NCc1ccc(F)cc1 | 6 | 12[16.7 µM] | · | · | 3 | ·
COc1ccc(C(=O)NCCN(C)C)c2nc3ccccc3cc12 | -1 | -2 | 95* | · | · | -3
COc1cccc2nc3c(C(=O)NCCN(C)C)cccc3cc12 | -2 | 1 | 77* | · | · | 2
COc1ccc(-c2nc3c(C(=O)NCCN(C)C)cccc3c3ccccc23)cc1 | 1 | -7 | -1 | · | · | 1
CN(C)CCNC(=O)c1cccc2nc3c(ccc4ccccc43)nc12 | 6 | -7 | 86* | · | · | 6
COc1ccc(Cl)cc1C(=O)NCCN(C)C | 5 | -8 | 2 | 1 | -19 | 1
COc1ccc(NC(=O)Nc2ccc3c(c2)C(=O)N([C@@H](C)CO)C[C@@H](C)[C@H](CN(C)S(=O)(=O)c2ccc(Cl)cc2)OCCCC[C@@H](C)O3)cc1 | -11 | -4[16.7 µM] | · | · | -6 | ·
N#C[C@@H]1[C@H](c2ccccc2C2=CCCCC2)[C@@H](CO)N1C(=O)NC1CCCCC1 | -2 | · | · | · | · | ·
Cc1ccccc1N1CC(=O)N(c2ccccc2C)CC1=O | 8 | 2 | 20 | -22 | 4 | -2
Cc1cccc2c1c1ccc3c(c1n2C)C(=O)C=CC3=O | · | · | 94* | -93 | -6 | -3
CCOC(=O)NC(=O)CSc1nnnn1-c1ccc(C)cc1 | 94* | -6 | 6 | -4 | 0 | -1
CCOC(=O)NC(=O)CSc1nnnn1-c1ccc(Cl)cc1 | 3 | 4 | -4 | 7 | -3 | 1
CN(C)C(=O)c1ccc(-c2ccc(C3[C@@H]4CN(C(=O)C5CCOCC5)C[C@H]3N4)cc2)cc1 (stereo not given in full) | -8 | · | · | · | · | ·
N#C/C(=C/c1ccc(N2CCOCC2)o1)c1ccc(Br)cc1 | 0 | -5 | -61 | 63 | · | ·
N#C/C(=C/c1ccc(N2CCCCCC2)o1)c1cccc(F)c1 | 0 | -2 | -85 | 86* | -12 | ·
N#C/C(=C\N1CCOCC1)c1ccccc1 | · | · | -2 | 6 | · | -3
N#C/C(=C\c1ccc(N2CCOCC2)cc1)c1ccccc1 | -6 | -3 | -144 | 143* | -25 | 33*
N#C/C(=C\c1ccc(N2CCOCC2)o1)c1ccccc1 | -9 | 2 | -89 | 87* | -8 | 1
C[C@@H]1CN([C@H](C)CO)C(=O)c2cc(C#CCN(C)C)cnc2O[C@@H]1CN(C)C(=O)c1ccc(F)cc1 | 11 | -4[16.7 µM] | · | · | -2 | ·

Some values from the list:
`CCOC(=O)NC(=O)CSc1nnnn1-c1ccc(C)cc1` – Yeast UUG start = 0
`COc1cccc2nc3c(C(=O)NCCN(C)C)cccc3cc12` – miR-122 sensor = 1

Back to the main list, repeating the 2 entries before the break.
SMILES | PGC1a acetyl inh | miR-122 sensor | MITF TRPM1 inh | MITF TRPM1 HTS | Yeast UUG start | Wnt bcat act
N#C/C(=C\c1ccc(N2CCOCC2)o1)c1ccccc1 | -9 | 2 | -89 | 87* | -8 | 1
C[C@@H]1CN([C@H](C)CO)C(=O)c2cc(C#CCN(C)C)cnc2O[C@@H]1CN(C)C(=O)c1ccc(F)cc1 | 11 | -4[16.7 µM] | · | · | -2 | ·
Cc1ccc(-c2cnc3c(c2)C(=O)N([C@H](C)CO)C[C@H](C)[C@H](CN(C)C(=O)c2cccc(F)c2)O3)cc1 | 8 | 38[16.7 µM] | · | · | 10 | ·
CCc1ccc(-c2cc(C(=O)NCc3ccccn3)c3ccccc3n2)cc1 | · | 148* | -45 | 36 | · | -1
Cc1ccc(-c2cc(C(=O)NCc3ccccn3)c3ccccc3n2)cc1 | · | · | -27 | 32 | -30 | ·
CC#CCOCC1CNC(=O)O1 (stereo not given) | 5 | -3 | · | · | -24 | 429*
COc1ccc(OCC2CNC(=O)O2)cc1 (stereo not given) | · | · | 3 | -1 | · | ·
CC(C)(C)C(=O)Nc1cc(S(=O)(=O)Nc2ccc(Cl)cc2)ccc1O | · | 167* | 7 | -5 | · | 3
COc1ccc(/[N+]([O-])=C/c2ccco2)cc1 | 1 | -4 | -84 | 89* | -36 | 46*
COc1ccc(/C=C2/N=C(SCC(=O)Nc3cc(C)on3)N(c3ccccc3)C2=O)cc1 | 5 | -9 | 14 | -10 | -4 | 0
CCC(SC1=N/C(=C/c2ccccc2)C(=O)N1c1ccccc1)C(=O)Nc1cc(C)on1 (stereo not given) | · | 341* | -2 | 5 | -15 | -5
C[C@H](CO)N1C[C@H](C)[C@@H](CN(C)C(=O)c2ccncc2)Oc2ncc(C#CC3CCCC3)cc2C1=O | 10 | -3[16.7 µM] | · | · | · | ·
COc1ccc(NC(=O)N(C)C[C@H]2Oc3ccc(NS(C)(=O)=O)cc3C(=O)N([C@@H](C)CO)C[C@H]2C)cc1 | -2 | 1[16.7 µM] | · | · | -15 | ·
CCCN(CCC)Cc1c(C(=O)N/N=C/C(C)=C\c2ccco2)nnn1-c1nonc1N | · | 44 | 69* | -66 | 9 | -3
CCOc1ccc(-c2c(C(=O)N/N=C/c3ccccc3)nnn2-c2nonc2N)cc1 | -3 | · | 13 | · | · | 34*
CC(/C=N/NC(=O)c1nnn(-c2nonc2N)c1CN(C)C)=C\c1ccco1 | 3 | -6 | 11 | · | -6 | 1
COc1ccc(-c2ccc3n(c2=O)C[C@H]2[C@H](CO)[C@@H](C(=O)N(C)C)[C@@H]3N2Cc2cccnc2)cc1 | · | 0[16.7 µM] | · | · | · | ·
Cc1cc(C(=O)COC(=O)c2ccc(NC(=O)CC#N)cc2)c(C)n1C1CC1 | 0 | -1 | -48 | 50 | -46 | 9
Cc1cc(C(=O)COC(=O)c2ccc(Cl)c(S(N)(=O)=O)c2)c(C)n1C1CC1 | · | · | -97 | 97* | -9 | 45*
Cc1cc(C(=O)COC(=O)c2ccc(F)cc2F)c(C)n1C1CC1 | · | · | -117 | 118* | -17 | 11
Cc1cc(C(=O)COc2ccccc2C(N)=O)c(C)n1C1CC1 | · | · | -25 | 23 | · | 39*
CCOc1cc(/C=C\[N+](=O)[O-])ccc1OCC(=O)N1CCOCC1 | -37 | · | 94* | -93 | · | 0
S=C(N/N=C/c1cccs1)NC1CC2CCC1C2 (stereo not given) | -1 | 12 | -19 | · | -24 | 34*
O=C(COC(=O)Cn1cnc2ccccc21)Nc1ccc(Br)cc1 | 5 | -6 | · | · | -7 | 0
O=C(COC(=O)Cn1cnc2ccccc21)Nc1ccc2c(c1)C(=O)c1ccccc1C2=O | · | · | -26 | 27 | · | 59*
CC(C)CN=C(NS(=O)(=O)c1ccccc1)C(Cl)(Cl)Cl | · | · | 86* | -86 | · | 1
COc1cc(/C=N/NC(=O)CNC(=O)c2ccccc2)ccc1OC(=O)c1cccs1 | -1 | 2 | -14 | 13 | -1 | 33*
O=C(c1ccc(F)cc1)N1CCCCN2[C@H](C1)[C@@H](c1ccc(-c3ccc(F)cc3)cc1)[C@@H]2CO | -3 | 0[16.7 µM] | · | · | -6 | ·
COc1ccc(S(=O)(=O)Nc2cc3c4c(oc3c3ccccc23)CC(C)(C)CC4=O)cc1 | · | 39 | -6 | · | -20 | ·
COc1ccc(S(=O)(=O)Nc2cc3c4c(oc3c3ccccc23)CCCC4=O)cc1 | -34 | 127* | 37 | -37 | 1 | ·
O=C(Nc1ccccn1)c1ccc(C(=O)Nc2ccccn2)cc1 | 21 | 3 | -50 | · | -12 | ·
O=C(NC(=S)Nc1ccc2ncccc2c1)c1ccccc1 | 1 | 5 | -72 | 75 | -16 | 15
O=C(NC(=S)Nc1ccccn1)c1ccccc1 | · | · | -24 | 33 | -43 | 39*

Single records, from the list above:
O=C(NC(=S)Nc1ccc2ncccc2c1)c1ccccc1 is entered as PGC1a acetyl inh: 1; miR-122 sensor: 5; MITF TRPM1 inh: -72; MITF TRPM1 HTS: 75; Yeast UUG start: -16; Wnt bcat act: 15
COc1ccc(S(=O)(=O)Nc2cc3c4c(oc3c3ccccc23)CCCC4=O)cc1 is entered as PGC1a acetyl inh: -34; miR-122 sensor: 127*; MITF TRPM1 inh: 37; MITF TRPM1 HTS: -37; Yeast UUG start: 1; Wnt bcat act: ·
